# Measurements: patent publication US12187720B2, “Compounds for treatment of cancer” (ONCTERNAL THERAPEUTICS, INC., priority 2010, dated 2025)
# Assay: Pharmacokinetic study in Sprague-Dawley rats
# Details: […] (1h, 2r), 5 mg/kg (5Ha, 5Hc)
smiles,measurement,value
"COc1cc(C(=O)c2csc(-c3ccccc3)n2)cc(OC)c1OC [1h, (2-Phenyl-thiazol-4-yl)-(3,4,5-trimethoxy-phenyl)-methanone]","Cmax, IV",3816 ± 509 ng/mL
